# The source made the active and inactive calls. No cut-off for these calls is given here.
# Chains of the proteins cited; added tags and fusions are not shown. Lines headed by an entry give the natural chain unless they say otherwise; changes in a name come on top.
# UniProt P21918, whole entry: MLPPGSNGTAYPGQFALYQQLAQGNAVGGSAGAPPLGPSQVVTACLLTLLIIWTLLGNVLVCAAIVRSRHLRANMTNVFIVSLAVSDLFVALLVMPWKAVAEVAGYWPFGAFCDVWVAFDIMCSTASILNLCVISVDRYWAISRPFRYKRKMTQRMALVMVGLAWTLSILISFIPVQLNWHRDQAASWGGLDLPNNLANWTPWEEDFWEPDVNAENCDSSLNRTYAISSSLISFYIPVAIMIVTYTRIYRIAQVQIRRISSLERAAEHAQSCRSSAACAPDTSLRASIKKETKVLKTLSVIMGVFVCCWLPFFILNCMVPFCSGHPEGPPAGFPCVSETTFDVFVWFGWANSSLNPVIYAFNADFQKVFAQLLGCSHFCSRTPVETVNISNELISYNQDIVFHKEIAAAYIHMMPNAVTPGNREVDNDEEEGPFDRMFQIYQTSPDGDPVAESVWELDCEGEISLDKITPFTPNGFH
# UniProt Q9Y5N1: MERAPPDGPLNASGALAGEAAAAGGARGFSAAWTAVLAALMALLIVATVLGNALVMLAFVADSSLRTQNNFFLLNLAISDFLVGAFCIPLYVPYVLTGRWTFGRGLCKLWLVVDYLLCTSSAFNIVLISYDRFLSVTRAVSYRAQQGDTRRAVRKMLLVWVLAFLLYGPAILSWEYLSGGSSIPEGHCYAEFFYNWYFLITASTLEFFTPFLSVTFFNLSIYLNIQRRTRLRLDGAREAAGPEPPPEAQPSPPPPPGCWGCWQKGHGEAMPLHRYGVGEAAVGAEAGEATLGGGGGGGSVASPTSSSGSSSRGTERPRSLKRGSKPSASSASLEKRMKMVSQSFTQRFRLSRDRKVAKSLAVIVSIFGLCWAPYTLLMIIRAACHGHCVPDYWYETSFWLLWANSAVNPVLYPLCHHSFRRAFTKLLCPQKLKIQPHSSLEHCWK
# UniProt P23975, whole entry: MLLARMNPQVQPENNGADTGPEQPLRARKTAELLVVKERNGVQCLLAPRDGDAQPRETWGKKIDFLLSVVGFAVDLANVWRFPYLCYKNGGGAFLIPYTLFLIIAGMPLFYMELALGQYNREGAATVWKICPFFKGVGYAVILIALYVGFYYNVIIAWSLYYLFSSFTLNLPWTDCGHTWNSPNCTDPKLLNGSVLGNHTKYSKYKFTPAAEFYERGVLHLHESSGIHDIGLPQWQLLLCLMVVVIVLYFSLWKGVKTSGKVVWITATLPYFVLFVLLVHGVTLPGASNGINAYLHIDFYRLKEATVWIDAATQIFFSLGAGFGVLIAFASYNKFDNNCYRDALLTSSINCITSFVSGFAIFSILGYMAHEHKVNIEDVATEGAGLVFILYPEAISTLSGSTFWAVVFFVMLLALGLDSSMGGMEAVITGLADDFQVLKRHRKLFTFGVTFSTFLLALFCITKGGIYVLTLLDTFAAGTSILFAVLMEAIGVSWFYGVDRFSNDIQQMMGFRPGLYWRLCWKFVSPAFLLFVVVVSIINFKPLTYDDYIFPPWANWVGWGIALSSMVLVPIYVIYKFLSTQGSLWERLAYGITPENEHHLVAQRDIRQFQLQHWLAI
# UniProt Q15910, whole entry, looked up: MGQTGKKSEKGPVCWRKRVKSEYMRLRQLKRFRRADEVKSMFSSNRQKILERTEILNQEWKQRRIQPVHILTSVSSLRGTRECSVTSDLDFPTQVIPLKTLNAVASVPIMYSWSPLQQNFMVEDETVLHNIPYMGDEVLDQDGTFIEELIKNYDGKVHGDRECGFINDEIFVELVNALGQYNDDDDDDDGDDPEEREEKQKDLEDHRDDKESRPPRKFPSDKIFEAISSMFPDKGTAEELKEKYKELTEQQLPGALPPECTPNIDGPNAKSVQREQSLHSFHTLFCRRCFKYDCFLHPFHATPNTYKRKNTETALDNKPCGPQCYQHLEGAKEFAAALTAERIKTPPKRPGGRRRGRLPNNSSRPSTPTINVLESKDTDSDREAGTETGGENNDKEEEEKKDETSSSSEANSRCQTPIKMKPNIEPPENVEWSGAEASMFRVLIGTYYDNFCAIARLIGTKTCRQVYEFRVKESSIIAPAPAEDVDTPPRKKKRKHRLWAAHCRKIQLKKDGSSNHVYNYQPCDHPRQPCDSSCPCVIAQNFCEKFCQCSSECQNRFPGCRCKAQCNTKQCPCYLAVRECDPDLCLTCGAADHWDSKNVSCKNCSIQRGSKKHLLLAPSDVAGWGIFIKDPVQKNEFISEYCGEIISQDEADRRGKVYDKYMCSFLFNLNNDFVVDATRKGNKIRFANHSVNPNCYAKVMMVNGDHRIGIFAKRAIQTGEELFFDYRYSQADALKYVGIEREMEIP
# How the values were obtained:
# [1] = molecular target: T1, Calcium/calmodulin-dependent protein kinase type IV (Homo sapiens) (UniProt Q16566); experiment: Inhibition of full length human N-terminal GST tagged CaMK4 (1 to 473 end residues) expressed in baculovirus expression system using GS as peptide at 10 uM by mobility shift assay relative to control
# T1 sequence (whole entry): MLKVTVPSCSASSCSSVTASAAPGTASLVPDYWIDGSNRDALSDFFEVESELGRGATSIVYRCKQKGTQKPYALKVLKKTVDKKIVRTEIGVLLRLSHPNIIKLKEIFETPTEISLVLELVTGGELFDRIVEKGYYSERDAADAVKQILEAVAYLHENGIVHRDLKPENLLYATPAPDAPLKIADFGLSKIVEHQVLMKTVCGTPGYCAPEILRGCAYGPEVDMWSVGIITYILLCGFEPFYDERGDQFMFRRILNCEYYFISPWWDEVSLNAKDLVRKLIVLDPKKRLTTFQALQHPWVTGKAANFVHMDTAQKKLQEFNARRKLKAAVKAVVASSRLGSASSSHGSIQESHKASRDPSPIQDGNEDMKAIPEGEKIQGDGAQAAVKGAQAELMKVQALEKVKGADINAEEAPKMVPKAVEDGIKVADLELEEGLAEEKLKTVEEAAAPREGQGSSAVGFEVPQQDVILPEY
# [2] = molecular target: D(1B) dopamine receptor (Homo sapiens) (UniProt P21918); experiment: Inhibition of dopamine D5 receptor (unknown origin) at 10 uM by radioligand binding assay relative to control
# [3] = molecular target: T2, Histamine H3 receptor (Homo sapiens, UniProt Q9Y5N1); experiment: Inhibition of H3 receptor (unknown origin) at 10 uM by radioligand binding assay relative to control
# [4] = molecular target: Sodium-dependent noradrenaline transporter (Homo sapiens, UniProt P23975); experiment: Inhibition of NET (unknown origin) at 10 uM by radioligand binding assay relative to control
# [5] = molecular target: T2, Histamine H3 receptor; experiment: Agonist activity at H3 receptor (unknown origin) at 1 uM; type: functional
# [6] = molecular target: T2, Histamine H3 receptor; experiment: Antagonists activity at H3 receptor (unknown origin) at 1 uM
# [7] = molecular target: Histone-lysine N-methyltransferase EZH2 (Homo sapiens, UniProt Q15910); experiment: Inhibition of EZH2 (unknown origin) at 10 uM relative to control
compound,measurement,setting,value
CCCc1cc(C)[nH]c(=O)c1CNC(=O)c1cc(-c2ccc(N3CCN(C(C)C)CC3)nc2)cc2c1cnn2C(C)C,inhibition,[1],20%
same,inhibition,[2],20%
same,inhibition,[3],95%
same,inhibition,[4],83%
same,Activity,[5],inactive
same,Activity,[6],inactive
same,inhibition,[7],> 20%
